Experimental data published in PubChem BioAssay (NCI).
Values joined by “and” are separate entries in the source; they are usually repeats but may differ in a detail not shown here. Identical values can stand only once. The list shows a part of the results, in another mix than the full data.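 Step 1: grow cells in 96-well plates. Step 2: add test compound at a single concentration. Step 3: incubate 48 h. Step 4: record percent growth.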 Active and inactive are the calls of the source. How the source made its calls: active means growth percent below 10; inactive means the rest.

Columns and labels:
Test in all cases: NCI-60 one-dose screen, 48 h (100 = growth as untreated, 0 = no growth, -100 = all killed)
Conditions in all cases: 10 µM unless noted
NCI-H23 lung = test system: NCI-H23 lung
NCI-H226 lung = test system: NCI-H226 lung
NCI-H322M lung = test system: NCI-H322M lung
HOP-62 NSCLC = test system: HOP-62 NSCLC
NCI-H460 lung = test system: NCI-H460 lung
HOP-92 NSCLC = test system: HOP-92 NSCLC
NCI-H522 lung = test system: NCI-H522 lung
A549/ATCC NSCLC = test system: A549/ATCC NSCLC
786-0 renal = test system: 786-0 renal
COLO 205 colon = test system: COLO 205 colon
DU-145 prostate = test system: DU-145 prostate
K-562 leukemia = test system: K-562 leukemia
MALME-3M melanoma = test system: MALME-3M melanoma
MDA-MB-231 breast = test system: MDA-MB-231 breast
RXF 393 renal = test system: RXF 393 renal
SF-268 CNS = test system: SF-268 CNS
SF-295 CNS = test system: SF-295 CNS
SF-539 CNS = test system: SF-539 CNS
UACC-257 melanoma = test system: UACC-257 melanoma
M14 melanoma = test system: M14 melanoma

| Structure (SMILES) | growth (NCI-H23 lung) | growth (NCI-H226 lung) | growth (NCI-H322M lung) | growth (HOP-62 NSCLC) | growth (NCI-H460 lung) | growth (HOP-92 NSCLC) | growth (NCI-H522 lung) | growth (A549/ATCC NSCLC) | growth (786-0 renal) | growth (COLO 205 colon) | growth (DU-145 prostate) | growth (K-562 leukemia) | growth (MALME-3M melanoma) | growth (MDA-MB-231 breast) | growth (RXF 393 renal) | growth (SF-268 CNS) | growth (SF-295 CNS) | growth (SF-539 CNS) | growth (UACC-257 melanoma) | growth (M14 melanoma) |
| --- | --- | --- | --- | --- | --- | --- | --- | --- | --- | --- | --- | --- | --- | --- | --- | --- | --- | --- | --- | --- |
| CCN(CCCl)Cc1cccc2ccccc12 | inactive: 104% | inactive: 102% | inactive: 96.1% | inactive: 101% | inactive: 99.4% | inactive: 77.5% | inactive: 85.3% | inactive: 101% | inactive: 101% | inactive: 104% | inactive: 113% | inactive: 97.9% | inactive: 107% | inactive: 108% | inactive: 118% | inactive: 101% | inactive: 109% | inactive: 99.5% | inactive: 111% | inactive: 108% |
| CCCCCCC(C)OP(O)OC(C)CCCCCC (stereo not given) | inactive: 94.1% | inactive: 93.2% | inactive: 102% | inactive: 113% | inactive: 127% | inactive: 110% | inactive: 107% | inactive: 107% | inactive: 100% | inactive: 112% | inactive: 117% | inactive: 103% | inactive: 98.8% | inactive: 116% | inactive: 106% | inactive: 112% | inactive: 101% | inactive: 113% | inactive: 112% | inactive: 100% |
| Cn1c(COc2ccc([N+](=O)[O-])cc2[N+](=O)[O-])cnc1[N+](=O)[O-] | inactive: 90.5% | inactive: 91.5% | inactive: 106% | inactive: 90.3% | inactive: 100% | inactive: 102% | inactive: 86.1% | inactive: 98.7% | inactive: 100% | inactive: 102% | inactive: 107% | inactive: 91.5% | inactive: 106% | inactive: 105% | inactive: 106% | inactive: 96.6% | inactive: 98% | inactive: 97.5% | inactive: 106% | inactive: 94.9% |
| COP(OC)c1ccc(C)cc1 | inactive: 112% | inactive: 111% | inactive: 120% | inactive: 113% | inactive: 109% | inactive: 93.4% | inactive: 93.8% | inactive: 99.2% | inactive: 104% | inactive: 127% | inactive: 106% | inactive: 97.5% | inactive: 99.4% | inactive: 106% | inactive: 169% | inactive: 100% | inactive: 116% | inactive: 112% | inactive: 112% | inactive: 107% |
| COC(=O)c1ccc(N2CCOP2(=O)Cl)cc1O (stereo not given) | inactive: 117% | inactive: 108% | inactive: 101% | inactive: 112% | inactive: 110% | inactive: 69.2% | inactive: 94.9% | inactive: 92.2% | inactive: 96.7% | inactive: 104% | inactive: 106% | inactive: 95.4% | inactive: 104% | inactive: 108% | inactive: 113% | inactive: 111% | inactive: 114% | inactive: 102% | inactive: 84.6% | inactive: 103% |
| CCOP(=O)(CCBr)OCC | inactive: 116% and inactive: 100% | inactive: 96.9% and inactive: 97.5% | inactive: 106% and inactive: 110% | inactive: 97.5% and inactive: 95.5% | inactive: 104% and inactive: 99.4% | inactive: 80.2% and inactive: 101% | inactive: 99.4% and inactive: 121% | inactive: 102% | inactive: 100% and inactive: 93.3% | inactive: 118% and inactive: 111% | inactive: 106% and inactive: 109% | inactive: 102% and inactive: 116% | inactive: 98.3% | inactive: 123% and inactive: 98.5% | inactive: 97.2% and inactive: 95.6% | inactive: 110% and inactive: 102% | inactive: 113% and inactive: 98.7% | inactive: 97.4% and inactive: 104% | inactive: 106% and inactive: 88.4% | inactive: 108% and inactive: 104% |
| O=c1ccc(Oc2ccc([N+](=O)[O-])cc2[N+](=O)[O-])nn1-c1ccc([N+](=O)[O-])cc1[N+](=O)[O-] | inactive: 77.9% | inactive: 86% | inactive: 99.1% | inactive: 39.4% | inactive: 75% | inactive: 27.8% | active: -70.5% | inactive: 75.1% | active: -87.6% | inactive: 51.3% | inactive: 74% | active: -19.1% | active: -63.1% | active: -80.1% | inactive: 75.5% | inactive: 73.5% | inactive: 90.7% | inactive: 16.3% | inactive: 49.6% | inactive: 76% |
| Cc1ccc(OP(=O)(Nc2ccc([N+](=O)[O-])cn2)Oc2ccc(C)cc2)cc1 | inactive: 99% | inactive: 144% | inactive: 106% | inactive: 113% | inactive: 100% | inactive: 80.6% | inactive: 67.1% | inactive: 96.2% | inactive: 93.6% | inactive: 127% | inactive: 116% | inactive: 98% | inactive: 117% | inactive: 88.6% | inactive: 46.5% | inactive: 98.7% | inactive: 124% | inactive: 104% | inactive: 90.2% | inactive: 97.9% |
| NCCSP(=O)(O)O | inactive: 103% | inactive: 94.7% | inactive: 106% | inactive: 103% | inactive: 102% | inactive: 106% | inactive: 111% | inactive: 104% | inactive: 126% | inactive: 97.9% | inactive: 111% | inactive: 132% | inactive: 129% | inactive: 102% | inactive: 118% | inactive: 96.7% | inactive: 104% | inactive: 107% | inactive: 106% | inactive: 105% |
| CC1CN1P(=O)(Nc1ncccn1)N1CC1C (stereo not given) | inactive: 96.2% | inactive: 105% | inactive: 118% | inactive: 100% | inactive: 96.6% | inactive: 94.4% | inactive: 88.1% | inactive: 102% | inactive: 108% | inactive: 111% | inactive: 111% | inactive: 117% | inactive: 114% | inactive: 110% | inactive: 107% | inactive: 97.1% | inactive: 111% | inactive: 89.2% | inactive: 109% | inactive: 99.9% |
| COc1ccc(N)c([N+](=O)[O-])c1[N+](=O)[O-] | inactive: 98.6% | inactive: 108% | inactive: 114% | inactive: 104% | inactive: 103% | inactive: 33.3% | inactive: 102% | inactive: 100% | inactive: 105% | inactive: 122% | inactive: 110% | inactive: 101% | inactive: 99.3% | inactive: 92.8% | inactive: 101% | inactive: 105% | inactive: 110% | inactive: 101% | inactive: 88.7% | inactive: 94.7% |
| O=P(CCl)(Sc1ccc(Cl)cc1)N(CCCl)CCCl (stereo not given) | inactive: 98.1% | inactive: 88.2% | inactive: 102% | inactive: 113% | inactive: 100% | inactive: 60.9% | inactive: 80.4% | inactive: 86.1% | inactive: 97.2% | inactive: 104% | inactive: 103% | inactive: 103% | inactive: 108% | inactive: 102% | inactive: 96% | inactive: 96.1% | inactive: 95.8% | inactive: 93.9% | inactive: 82.5% | inactive: 106% |
| COC(=O)C1=C(C)O[P@](=O)(OC)CCC1c1ccccc1 (stereo not given in full) | inactive: 100% | inactive: 99.2% | inactive: 106% | inactive: 96.7% | inactive: 105% | inactive: 70.7% | inactive: 98% | inactive: 101% | inactive: 98.1% | inactive: 108% | inactive: 115% | inactive: 107% | inactive: 94.3% | inactive: 114% | inactive: 105% | inactive: 114% | inactive: 102% | inactive: 99.7% | inactive: 100% | inactive: 111% |
| O=[N+]([O-])c1cccc(Oc2ccc([N+](=O)[O-])cc2[N+](=O)[O-])c1 | inactive: 26.3% | inactive: 25.9% | inactive: 115% | inactive: 65.7% | active: 3.4% | inactive: 62.7% | active: -21.4% | inactive: 78.9% | inactive: 19% | active: -13.6% | active: 9.62% | inactive: 20.2% | inactive: 40.4% | inactive: 27.4% | active: 8.19% | inactive: 18.2% | active: -13.9% | active: 6.24% | inactive: 39.7% | active: 7.47% |
